Reference: patent publication US7691848B2, “Pyrrolobenzodiazepine arylcarboxamides and derivatives thereof as follicle-stimulating hormone receptor antagonists” (Wyeth, priority 2005, dated 2010)

Amino acid sequences for entries named in this document (tags omitted). Residues count along the entry.
UniProt P16473, 21-764: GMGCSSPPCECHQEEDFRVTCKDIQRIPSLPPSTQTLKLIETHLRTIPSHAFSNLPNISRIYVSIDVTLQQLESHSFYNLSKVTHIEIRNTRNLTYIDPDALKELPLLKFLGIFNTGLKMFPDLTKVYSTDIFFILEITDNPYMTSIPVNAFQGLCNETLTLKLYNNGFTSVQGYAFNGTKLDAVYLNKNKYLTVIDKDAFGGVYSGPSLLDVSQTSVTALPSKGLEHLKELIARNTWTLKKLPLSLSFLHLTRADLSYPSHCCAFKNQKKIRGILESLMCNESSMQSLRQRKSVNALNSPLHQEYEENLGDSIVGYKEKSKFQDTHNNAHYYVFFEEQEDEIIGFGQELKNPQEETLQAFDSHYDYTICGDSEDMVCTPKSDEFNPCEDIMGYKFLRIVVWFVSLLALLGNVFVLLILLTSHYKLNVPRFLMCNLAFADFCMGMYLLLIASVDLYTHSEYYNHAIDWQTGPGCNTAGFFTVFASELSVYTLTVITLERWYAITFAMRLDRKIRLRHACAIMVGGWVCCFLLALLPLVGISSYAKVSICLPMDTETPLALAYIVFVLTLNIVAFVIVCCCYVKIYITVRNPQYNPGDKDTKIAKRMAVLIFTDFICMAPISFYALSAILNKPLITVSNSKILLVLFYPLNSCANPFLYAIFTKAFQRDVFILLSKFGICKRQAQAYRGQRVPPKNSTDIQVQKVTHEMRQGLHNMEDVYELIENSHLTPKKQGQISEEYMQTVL

Tests used:
Format in all cases: cell-based
[1] = target: T1, human FSH receptor (Homo sapiens, UniProt P23945); experiment: Follicle-Stimulating Hormone Receptor-Dependent Cre-Luciferase Reporter Gene Assay (CHO FSH-R 6CRE-Luc cells); settings: positive control
T1 construct: host or cells: CHO-K1 (CHO FSH-R 6CRE-Luc, 1D7 cells)
T1 sequence (P23945 18-695): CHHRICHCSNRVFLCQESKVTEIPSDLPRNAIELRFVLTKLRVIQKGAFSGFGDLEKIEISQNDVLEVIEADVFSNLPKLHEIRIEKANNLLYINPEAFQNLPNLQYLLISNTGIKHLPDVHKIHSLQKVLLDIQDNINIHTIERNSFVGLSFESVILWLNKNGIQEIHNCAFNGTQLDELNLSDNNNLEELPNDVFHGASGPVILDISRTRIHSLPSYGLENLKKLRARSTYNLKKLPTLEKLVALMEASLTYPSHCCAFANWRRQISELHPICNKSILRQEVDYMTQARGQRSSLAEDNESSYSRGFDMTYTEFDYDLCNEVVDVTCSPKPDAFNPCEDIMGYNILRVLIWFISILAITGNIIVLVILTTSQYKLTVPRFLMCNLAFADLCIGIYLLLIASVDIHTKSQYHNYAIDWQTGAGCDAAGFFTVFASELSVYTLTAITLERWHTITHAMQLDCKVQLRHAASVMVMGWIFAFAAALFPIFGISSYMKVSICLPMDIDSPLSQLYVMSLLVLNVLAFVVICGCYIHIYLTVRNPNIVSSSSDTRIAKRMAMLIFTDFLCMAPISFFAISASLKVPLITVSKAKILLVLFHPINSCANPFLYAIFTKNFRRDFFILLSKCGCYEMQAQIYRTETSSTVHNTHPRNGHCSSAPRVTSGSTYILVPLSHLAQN
Description: Follicle-Stimulating Hormone Receptor-Dependent Cre-Luciferase Reporter Gene Assay for the Identification of Follicle-Stimulating Hormone (FSH) Antagonists
A Chinese hamster ovarian cell line that stably produces the human FSH receptor and a luciferase reporter gene regulated by cAMP response elements was used to identify and determine the relative potencies of human FSH receptor antagonists. See for example, Kelton, C. A., et al. Mol. Cell. Endocrinol. 89:141-151 (1992), Tilly, J. L., et al. Endocrinology 131:799-806(1992), and George, S. E., et al. J. Biomol. Screening 2:235-240 (1997).
Compound Vehicle: Stock compounds were solubilized in an appropriate vehicle, e.g., phosphate buffered saline (PBS) or dimethyl sulfoxide (DMSO), at 30 mM. The compounds were subsequently diluted in DMSO to working dilutions of 1 and 20 or 30 mM for 2-dose testing format and 1 μM-10 mM for dose-response format. The DMSO dilutions were diluted 500-fold in sterile growth medium [D-MEM/F-12 (GIBCO/BRL; Grand Island, NY) containing 15 mM HEPES, 2 mM 1-glutamine, pyridoxine hydrochloride, phenol red and 5% FetalClone® II (HyClone Laboratories, Inc; Logan, Utah), 0.2% DMSO, 100 units penicillin G/ml, and 100 μg streptomycin sulfate/ml (GIBCO/BRL)]. The concentration of the vehicle in each of the compound dilutions was the same. […]

[2] = target: T2, hFSH-R (Homo sapiens, UniProt P23945); experiment: cAMP accumulation (RIA) in CHO-3D2 cells (hFSH-R), hFSH-induced; settings: agonist mode, four-parameter logistic equation
T2 construct: expressed in transfected cells; host or cells: CHO-3D2 cells (CHO-K1 parental line)
T2 sequence (P23945 18-695): T1 sequence (P23945 18-695)
Procedure: In Vitro Bio-Assay, Selectivity and Dependency of Agonists and Antagonists to the FSH Receptor
This assay was used to verify in vitro potency, efficacy, selectivity and receptor dependency of hits found to inhibit an FSH-R-CRE-luciferase driven reporter.
Compound Vehicle: Stock compounds were solubilized in 100% DMSO (Sigma-Aldrich Chemical Co., St. Louis, Mo.) at a concentration of 30 mM. The compounds subsequently were diluted in sterile assay medium consisting of Opti-MEM® I (Invitrogen/Life Technologies, Carlsbad, Calif.) with 0.1% (w/v) BSA (Sigma-Aldrich) prior to use in the bio-assay. The final concentration of DMSO in the assay was 0.1%.
The day prior to the experiment, CHO-3D2 cells (hFSH-R)(1) were plated into 96-well tissue culture plates (Falcon®, BD Biosciences, San Jose, Calif.) at a density of 30,000 cells/well in DMEM/F12 medium (Invitrogen/Life Technologies) supplemented with 5% Fetal Clone II (Hyclone), 2 mM L-glutamine (Invitrogen/Life Technologies) and penicillin/streptomycin (100 U/ml, Invitrogen/Life Technologies). Plated cells are then incubated at 37° C. in a humidified 5% CO2/95% air atmosphere.
Assay: On the day of the assay, cells were washed three times with 100 μl/well of assay medium consisting of Opti-MEM® I (Invitrogen/Life Technologies) with 0.1% (w/v) BSA (Sigma-Aldrich). Medium was removed and 100 μl of assay medium was added to each well. […] Reactions were terminated by the addition of 50 μl of 0.2N hydrochloric acid to each well and cAMP-accumulation was measured by radioimmunoassay (RIA) using a commercially available kit (Amersham Biosciences, Piscataway, N.J.).
All test compounds were evaluated in a dose-response paradigm ranging from 0.01 to 30 μM. Controls and test compounds were evaluated in quadruplicate in a 96-well format. […] The ability of the compounds to inhibit the cAMP-accumulation induced by hFSH was evaluated by RIA.
In every assay, the EC20 concentration was calculated and only those experiments in which the EC20 concentrations were equal to 1.85±0.4 ng/mL were accepted as valid. […]

[3] = target: T3, hTSH-R (Homo sapiens, UniProt P16473); experiment: Selectivity: cAMP accumulation in CHO-25 (hTSH-R) cells, hTSH-induced; settings: CHO-25 cells
T3 construct: expressed in transfected cells; host or cells: CHO-25 cells
Procedure: cAMP accumulation assays using CHO-25 (hTSH-R) cells were performed as described above for the CHO-3D2 cells with the following exceptions: CHO-25 cells were plated at a density of 50,000 cells/well (2). All test compounds were evaluated in a dose-response paradigm ranging from 0.01 to 30 μM. Controls and test compounds were evaluated in quadruplicate. Cells were treated with vehicle, hTSH at EC20 (5 nM; hTSH >98% pure, Cortex Biochem, Inc.), or the compounds in the presence or absence of the hTSH at its EC20 concentration. The ability of the compounds to inhibit cAMP-accumulation induced by hTSH was evaluated by RIA.
Along with the test compounds, hTSH was also run as a positive control in the agonist mode using concentrations ranging from 0.01 μM-1000 μM.
cAMP accumulation is expressed as fmol/ml. cAMP accumulation in the agonist mode, or the ability of the compound to inhibit hFSH-, hTSH-, or forskolin-induced cAMP-accumulation in the antagonist mode, was compared to the appropriate negative and positive controls. Data were analyzed by one-way analysis of variance and significant differences between treatments and control determined by Least Significant Difference test.

Substance	EC50 of phFSH [1]	EC100 of phFSH [1]	apparent EC20, cAMP accumulation [2]	apparent EC50, cAMP accumulation [2]	apparent EC80, cAMP accumulation [2]	EC20 of hTSH, cAMP accumulation [3]
hFSH: Purified human FSH purchased from Cortex Biochem, Inc.; positive control	0.4 ng/mL	1000 ng/mL	1.85 ng/mL	6.03 ng/mL	22.55 ng/mL	–
hTSH: hTSH >98% pure, Cortex Biochem, Inc.; positive control in selectivity assay	–	–	–	–	–	5 nM
